Data from PubChem BioAssay AID1224905 (ICCB-Longwood Screening Facility, Harvard Medical School, 2016).
Screen size: about 210,000 compounds; about 880 (0.42%) were called active. Only a selection was taken, and actives are over-represented in it overall. Unmarked numbers belong to inactive results.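 How the source made its calls: active means replicate mean at 85% of control or lower with very high polarization wells dropped (limit read from the data); inactive means the rest.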

Sequences of proteins named here, by UniProt entry; tags and fusion partners are left off.
UniProt P08753, whole entry, looked up: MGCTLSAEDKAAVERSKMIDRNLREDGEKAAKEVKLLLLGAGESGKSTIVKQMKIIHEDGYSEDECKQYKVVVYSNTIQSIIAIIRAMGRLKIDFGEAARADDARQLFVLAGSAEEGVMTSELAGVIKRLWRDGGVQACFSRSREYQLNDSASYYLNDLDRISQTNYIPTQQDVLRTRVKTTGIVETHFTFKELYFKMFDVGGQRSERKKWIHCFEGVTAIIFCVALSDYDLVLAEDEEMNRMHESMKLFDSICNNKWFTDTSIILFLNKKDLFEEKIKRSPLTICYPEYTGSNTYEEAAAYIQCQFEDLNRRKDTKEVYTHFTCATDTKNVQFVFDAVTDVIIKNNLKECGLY

target: Guanine nucleotide-binding protein G(i) subunit alpha-3 (Rattus norvegicus) (UniProt P08753); experiment: inhibitors of GIV peptide binding to Galpha-i3, primary screen, biochemical, fluorescence polarization, FITC-GIV GBA peptide, rat Galphai3 (AID 1224905); conditions: 90 min, hits give low values;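 further: lower values mean more displacement of the GIV peptide from Galpha-i3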

Row | Compound | percent of control (FP)
1 | CN1CCc2c(c(S)[nH]c(=S)c2C#N)C1 | 35% (active)
2 | O=C(NCCN1CCOCC1)c1cc2cccnc2n(Cc2ccccc2)c1=O | 108% [scaled: aluminum fluoride 0%, vehicle 100%]
3 | CCOC(=O)C1CC2CCCN2C12C(=O)N(Cc1ccccc1)c1ccccc12 (stereo not given) | 101%
4 | O=c1c2ccccc2nc(COc2ccc(Cl)cc2)n1-c1ccc(Br)cn1 | 98.1%
5 | Cc1nc2nc(-c3ccc(C(C)(C)C)cc3)nn2c(C)c1CC(=O)N1CCN(CCO)CC1 | 102% [scaled: aluminum fluoride 0%, vehicle 100%]
